Consider two compounds from US6107345A, “Benzocyclobutane compounds” (Adir et Compagnie, priority 1998, dated 2000).

The chains behind the UniProt entries cited, without tags or fusion partners. Residues count along the entry.
UniProt Q63380, 1-617: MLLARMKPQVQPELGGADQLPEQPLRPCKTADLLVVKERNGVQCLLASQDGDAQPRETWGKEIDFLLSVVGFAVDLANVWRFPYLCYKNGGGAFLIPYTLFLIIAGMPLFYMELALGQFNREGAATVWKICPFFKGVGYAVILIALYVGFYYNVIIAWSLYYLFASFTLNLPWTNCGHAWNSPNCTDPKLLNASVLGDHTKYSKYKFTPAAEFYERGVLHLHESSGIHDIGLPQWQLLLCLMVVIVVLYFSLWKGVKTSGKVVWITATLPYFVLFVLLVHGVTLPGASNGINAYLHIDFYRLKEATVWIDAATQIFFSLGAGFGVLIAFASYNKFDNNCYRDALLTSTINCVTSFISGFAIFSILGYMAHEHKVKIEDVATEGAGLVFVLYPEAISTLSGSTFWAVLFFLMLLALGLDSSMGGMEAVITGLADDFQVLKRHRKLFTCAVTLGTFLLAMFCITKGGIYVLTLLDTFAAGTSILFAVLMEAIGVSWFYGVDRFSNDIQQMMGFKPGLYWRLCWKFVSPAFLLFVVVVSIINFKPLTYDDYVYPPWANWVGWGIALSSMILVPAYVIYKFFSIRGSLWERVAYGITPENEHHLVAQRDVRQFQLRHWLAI
UniProt P31652, whole entry: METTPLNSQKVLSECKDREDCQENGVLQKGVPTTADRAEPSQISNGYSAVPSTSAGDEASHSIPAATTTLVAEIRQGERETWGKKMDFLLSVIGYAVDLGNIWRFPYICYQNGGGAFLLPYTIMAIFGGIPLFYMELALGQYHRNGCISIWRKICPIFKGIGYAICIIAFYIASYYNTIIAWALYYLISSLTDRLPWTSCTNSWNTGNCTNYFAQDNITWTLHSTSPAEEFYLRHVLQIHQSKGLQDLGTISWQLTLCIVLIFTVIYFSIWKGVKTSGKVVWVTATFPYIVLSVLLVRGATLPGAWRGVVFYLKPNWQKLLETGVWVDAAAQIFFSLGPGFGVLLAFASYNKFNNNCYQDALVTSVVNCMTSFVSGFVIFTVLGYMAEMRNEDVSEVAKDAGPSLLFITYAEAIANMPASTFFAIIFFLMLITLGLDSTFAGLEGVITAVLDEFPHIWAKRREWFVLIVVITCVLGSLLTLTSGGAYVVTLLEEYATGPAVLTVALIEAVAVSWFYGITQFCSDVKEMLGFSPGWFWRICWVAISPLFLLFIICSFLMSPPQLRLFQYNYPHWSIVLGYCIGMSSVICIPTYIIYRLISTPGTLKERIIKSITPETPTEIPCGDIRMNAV

Assay [1] deals with T1, noradrenaline reuptake sites (Rattus norvegicus, UniProt Q63380).
T1 construct: The membranes are prepared from frontal cortex of rat; from tissue; host or cells: rat frontal cortex membranes
Put plainly: Determination of the affinity for noradrenaline reuptake sites ([3H]-nisoxetine competition). Format: binding. On the procedure:
The binding isotherms are analysed by non-linear regression to determine the IC50 values. Those values are converted into a dissociation constant (Ki) using the Cheng-Prusoff equation: […]
(§1) The results are expressed in pKi (-log Ki).

A further assay deals with T2, serotonin reuptake sites (Rattus norvegicus, UniProt P31652).
T2 construct: The membranes are prepared from frontal cortex of rate; from tissue; host or cells: frontal cortex membranes (rat, printed 'rate')
Description: Determination of the affinity for serotonin reuptake sites ([3H]-paroxetine competition). The format is binding. The following applies: radioligand; read-out: dissociation constant Kd for the serotonin reuptake site. The method, then:
Determination of the affinity for serotonin reuptake sites
The incubation buffer contains […] TRIS-HCl (pH 7.4), 120 mM NaCl and 5 mM KCl. The non-specific binding is determined using 10 μM citalopram. At the end of the incubation, the incubation medium is filtered and washed three times with 5 ml of cooled buffer. The radioactivity retained on the filters is determined by liquid scintillation counting. The binding isotherms are analysed by non-linear regression to determine the IC50 values. Those values are converted into a dissociation constant (Ki) using the Cheng-Prusoff equation: […]
as §1

In assay [1], `CNCCC(Oc1ccccc1OC)c1ccccc1` (centres unmarked) [[^3 H]-nisoxetine, reference compound] gave a Kd of 1.23 nM.
Take `Fc1ccc([C@@H]2CCNC[C@H]2COc2ccc3c(c2)OCO3)cc1` [[^3 H]-paroxetine, reference compound]: on serotonin reuptake sites, the dissociation constant Kd was found to be 0.13 nM.
